Earlier results, collected in publication PMC9182007, “Statistical Methods in the Study of Protein Binding and Its Relationship to Drug Bioavailability in Breast Milk” (Molecules, 2022).

Settings: Table S6, external group (n = 38); cited from earlier work

gentamycin
M/P: 0.36
